In patent US7399785B2, “N-oxides and derivatives of melphalan for treating diseased states associated with hypoxia inducible factor” (dated 2008):
Where two headings read alike, the source gives them in different places.

Experiments:
HIF-1α protein [1] = experiment: HIF-1α protein in nuclear extracts by Western blotting
VEGF = VEGF ELISA in cell lysates and medium; settings: for IC50: 16 h
[2] = test system: MCF-7 human breast cancer cells; experiment: MTT growth inhibition assay, MCF-7; settings: for IC50: read-out: IC50 growth inhibition, 16 h drug, MTT at 72 h
HIF-1α protein [3] = experiment: HIF-1α immunohistochemistry in MCF-7 xenografts in scid mice; settings: 100 mg/kg, 4 h after treatment
HIF-1α mRNA = HIF-1α mRNA measurement (Northern); settings: any of the cell lines (data not shown)
[4] = test system: HT-29 human colon carcinoma cells; experiment: MTT growth inhibition assay, HT-29; settings: for IC50: read-out: IC50 growth inhibition, 16 h drug, MTT at 72 h
HIF-1 transactivation = experiment: Hypoxia response element luciferase reporter assay (HIF-1 transactivation)
thioredoxin reductase = experiment: Thioredoxin reductase activity in lysates of treated cells; settings: 10 μM PX-478, 16 h
HIF-1β = HIF-1β protein in nuclear extracts by Western blotting; settings: any of the cell lines, 16 h normoxia or hypoxia
[5] = MCF-7 and HT-29 (either cell line), normoxia

N[C@@H](Cc1ccc([N+]([O-])(CCCl)CCCl)cc1)C(=O)O
time for HIF-1α protein to return to pre-treatment levels after removal of the drug (HIF-1α protein [1]; MCF-7, hypoxia, 25 μM PX-478): up to 4 h | IC50 (HIF-1α protein [1]; read-out: IC50 inhibition of HIF-1α protein, PC-3 cells, hypoxic conditions): 2.1 µM | IC50 (HIF-1α protein [1]; read-out: IC50 inhibition of HIF-1α protein, PC-3 cells, normoxia): 2.5 µM | IC50 (HIF-1α protein [1]; read-out: IC50 inhibition of HIF-1α protein, RCC4 cells (lacking VHL), hypoxia, 16 h): 16.9 µM | IC50 (HIF-1α protein [1]; read-out: IC50 inhibition of HIF-1α protein, RCC4 cells (lacking VHL), normoxia, 16 h): 5.1 µM | IC50 (HIF-1α protein [1]; read-out: IC50 inhibition of hypoxia-induced HIF-1α protein, HT-29, hypoxia (1% oxygen), 16 h): 17.8 µM | IC50 (HIF-1α protein [1]; read-out: IC50 inhibition of hypoxia-induced HIF-1α protein, MCF-7, hypoxia (1% oxygen), 16 h): 3.5 µM | IC50 (HIF-1α protein [1]; read-out: IC50 inhibition of hypoxia-induced HIF-1α protein, RCC4/VHL cells, hypoxia, 16 h): 18.1 µM | levels of VEGF secreted into the medium after treatment (VEGF; MCF-7, hypoxia, 10 μM PX-478): decreased to normoxic levels | effect on VEGF levels in normoxia (VEGF; [5]): did not affect VEGF levels in normoxia | IC50 (VEGF; read-out: IC50 for VEGF in cell lysates, HT-29, hypoxia): 13.5 µM | IC50 (VEGF; read-out: IC50 for VEGF in cell lysates, MCF-7, hypoxia): 17.1 µM | IC50 (VEGF; read-out: IC50 for VEGF secreted into the medium, HT-29, hypoxia): 11.5 µM | IC50 (VEGF; read-out: IC50 for VEGF secreted into the medium, MCF-7, hypoxia): 3.8 µM | ratio of growth inhibition under hypoxia to that in normoxia ([2]; MCF-7 cells): 1.25 | IC50 ([2]; MCF-7, hypoxia (1% oxygen)): 20 µM | IC50 ([2]; MCF-7, normoxia (20% oxygen)): 25.1 µM | levels of HIF-1α (staining intensity) compared to untreated controls (HIF-1α protein [3]): 50% | effect on HIF-1α mRNA levels (HIF-1α mRNA): No effect | ratio of growth inhibition under hypoxia to that in normoxia ([4]; HT-29 cells): 1.20 | IC50 ([4]; HT-29, hypoxia (1% oxygen)): 23.9 µM | IC50 ([4]; HT-29, normoxia (20% oxygen)): 29.5 µM | effect on HIF-1 transactivation under normoxia (HIF-1 transactivation; [5]): not affected | effect on HIF-1 transactivation in normoxia (HIF-1 transactivation; RCC4/VHL cells, normoxia): did not affect transactivation in normoxia | IC50 (HIF-1 transactivation; read-out: IC50 inhibition of HIF-1 transactivation, RCC4 cells, hypoxia): 10.1 µM | IC50 (HIF-1 transactivation; read-out: IC50 inhibition of HIF-1 transactivation, RCC4 cells, normoxia): 12.5 µM | IC50 (HIF-1 transactivation; read-out: IC50 inhibition of hypoxia-induced HIF-1 transactivation, HT-29, hypoxia (1% oxygen), 16 h): 23.1 µM | IC50 (HIF-1 transactivation; read-out: IC50 inhibition of hypoxia-induced HIF-1 transactivation, MCF-7, hypoxia (1% oxygen), 16 h): 20.5 µM | IC50 (HIF-1 transactivation; read-out: IC50 inhibition of hypoxia-induced HIF-1 transactivation, RCC4/VHL cells, hypoxia): 13.5 µM | thioredoxin reductase activity after treatment (thioredoxin reductase; hypoxic conditions): below the limit of detection | decrease of thioredoxin reductase activity (thioredoxin reductase; normoxia, MCF-7 cells (so in the source)): 40% | effect on HIF-1β levels (HIF-1β): No effect
